Assay: Selectivity ratio of IC50 for IKK1 to IC50 for IKK2

SMILES | Ratio IC50
O=S(=O)(c1ccc(-c2ccnc(Nc3ccc4ncsc4c3)n2)cc1)N1CCCC1 | > 18
O=S(=O)(c1ccc(-c2ccnc(Nc3ccc4ncsc4c3)n2)cc1)N1CCOCC1 | 18
O=C(Nc1ccc(-c2ccnc(Nc3ccc4ncsc4c3)n2)cc1)C1CCNCC1 | 5
O=S(=O)(c1ccc(-c2ccnc(Nc3ccc4ncsc4c3)n2)cc1)N1CCSCC1 | 20
